Inhibition data for one compound are collected here from ChEMBL document CHEMBL2177075, “Low molecular weight amidoximes that act as potent inhibitors of lysine-specific demethylase 1” (J Med Chem, 2012).

Calls of active or inactive are those of the source. The calls are words filed in the database; no cut-off is given here.

Experiment [1] concerns the target Lysine-specific histone demethylase 1A (Homo sapiens) (UniProt O60341). Particulars: Calu-6, 1 uM.
For experiment [2] the target is unchanged. The settings on record: Calu-6, 1 uM. This is another data set of the same source.

Take `N=C(N)NN`: the inhibition result in experiment [1] and in experiment [2] was “inactive” each time.
